Results as given in ChEMBL document CHEMBL3745681, “Synthesis, Biological Evaluation, and Utility of Fluorescent Ligands Targeting the μ-Opioid Receptor” (2015).

By UniProt entry, the sequences of proteins in these tests, tags left out.
UniProt P35372, whole entry, looked up: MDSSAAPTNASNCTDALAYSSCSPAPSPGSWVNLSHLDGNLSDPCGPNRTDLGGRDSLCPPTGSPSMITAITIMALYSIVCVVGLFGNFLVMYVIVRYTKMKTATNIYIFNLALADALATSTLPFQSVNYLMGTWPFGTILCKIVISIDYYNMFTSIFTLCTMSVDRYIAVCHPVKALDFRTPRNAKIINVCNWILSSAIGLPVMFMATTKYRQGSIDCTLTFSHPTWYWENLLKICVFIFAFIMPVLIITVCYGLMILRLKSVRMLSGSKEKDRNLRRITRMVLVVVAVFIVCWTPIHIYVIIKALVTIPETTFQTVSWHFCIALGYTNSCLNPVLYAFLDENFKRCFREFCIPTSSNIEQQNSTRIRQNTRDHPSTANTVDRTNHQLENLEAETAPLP

Key:
Mu-type opioid receptor [1] = target: T1, Mu-type opioid receptor (Homo sapiens, UniProt P35372); test: Displacement of 2-((1E,3E,5E)-5-(1-Ethyl-3,3-dimethyl-5-sulfoindolin-2-ylidene)-penta-1,3-dien-1-yl)-1-(6-((6-((6S,7R,7aR,12bS)-9-hydroxy-7-methoxy-3-methyl-1,2,3,4,5,6,7,7a-octahydro-4a,7-ethano-4,12-methanobenzofuro[3,2-e]isoquinoline-6-carboxamido)hexyl)-amino)-6-oxohexyl)-3,3-dimethyl-3H-indol-1-ium-5-sulfonate,2,2,2-Trifluoroacetate Salt from human MOR expressed in HEK293 cells by Cheng-Pruso
Mu-type opioid receptor [2] = target: T1, Mu-type opioid receptor; test: Displacement of [3H]DAMGO from human MOR expressed in HEK293 cells preincubated for 1 hr followed by radioligand addition measured after 1 hr by liquid scintillation counting analysis

CO[C@]12CC[C@@]3(C[C@@H]1C(C)(C)O)[C@H]1Cc4ccc(O)c5c4[C@@]3(CCN1CC1CC1)[C@H]2O5 showed a pKi (Mu-type opioid receptor [1]) of 9.91 and a pKi (Mu-type opioid receptor [2]) of 9.7.
